In data set [1] the test system is MDCK cell line transfected with human MDR1 (P-glycoprotein). In words: Permeability and efflux in vitro in MDCK-MDR1 cell line. The following applies: MDCK-MDR1 cells, B->A -GF120918 / A->B -GF120918.
The nature of data set [2]: Intrinsic clearance in rat liver microsomes. The following applies: 37° C., 1 μM compound, 1 mg/mL microsomal protein, up to 60 min. In general terms: Microsomes from liver hold many membrane-bound enzymes, among them those of drug oxidation.
Data set [3] is described as follows: Plasma stability in human plasma. The settings on record: 37° C., 1 μM, 7 or 24 h.
Data set [4] can be described thus: Stability in simulated gastric fluid (SGF). The settings on record: SGF with pepsin, incubation up to 2 hours.
A short description of data set [5]: Plasma stability in rat plasma. The following applies: 37° C., 1 μM, 7 or 24 h.
For data set [6], the system named is human hepatocytes. In words: Intrinsic clearance in human hepatocytes. The settings on record: 10^6 cells/mL, 1 μM, up to 120 min.
Data set [7] in a line: Stability in fasted simulated intestinal fluid (FASSIF). The settings on record: FASSIF with pancreatine and esterase, incubation up to 2 hours.
The test system of data set [8] is rat hepatocytes. In words: Intrinsic clearance in rat hepatocytes. The following applies: 10^6 cells/mL, 1 μM, up to 120 min.

Molecules are shown by their SMILES.

On to `CCCC[C@H](CO[Si](C)(C)C(C)(C)C)Nc1nc(NP(=O)(OCOC(=O)C(C)(C)C)OCOC(=O)C(C)(C)C)ncc1OC`, for which the Efflux ratio B->A/A->B in data set [1] is above 43. In addition, the CLint rat liver microsomes in data set [2] was above 347 µL/min/mg. The compound further came in with a t1/2 human plasma in data set [3] of 60 min. The “t1/2 SGF” value in data set [4] is 234 min. This compound came in with a t1/2 rat plasma in data set [5] below 24 min. This compound also showed a CLint hepatocytes human (uL/min/1e6 cells) in data set [6] above 280. Moreover, in data set [7], the “t1/2 FASSIF” value was 6 min. In addition, in data set [8], the CLint hepatocytes rat (uL/min/1e6 cells) was above 280.

Values taken from patent US10968184B2, “Pyrimidine prodrugs for the treatment of viral infections and further diseases” (Janssen Sciences Ireland Unlimited Company, priority 2016, dated 2021).
